Measurements published in ChEMBL document CHEMBL1139472, “Synthesis of N-{4-[(2,4-diamino-5-methyl-4,7-dihydro-3H-pyrrolo[2,3-d]pyrimidin-6-yl)thio]benzoyl}-L-glutamic acid and N-{4-[(2-amino-4-oxo-5-methyl-4,7-dihydro-3H-pyrrolo[2,3-d]pyrimidin-6-yl)thio]benzoyl}-L-glutamic acid as dual inhibitors of dihydrofolate reductase and thymidylate synthase and …” (J Med Chem, 2005).

Key:
[1] = molecular target: T1, Bifunctional dihydrofolate reductase-thymidylate synthase (Toxoplasma gondii, UniProt Q07422)
T1 sequence (Q07422 whole entry): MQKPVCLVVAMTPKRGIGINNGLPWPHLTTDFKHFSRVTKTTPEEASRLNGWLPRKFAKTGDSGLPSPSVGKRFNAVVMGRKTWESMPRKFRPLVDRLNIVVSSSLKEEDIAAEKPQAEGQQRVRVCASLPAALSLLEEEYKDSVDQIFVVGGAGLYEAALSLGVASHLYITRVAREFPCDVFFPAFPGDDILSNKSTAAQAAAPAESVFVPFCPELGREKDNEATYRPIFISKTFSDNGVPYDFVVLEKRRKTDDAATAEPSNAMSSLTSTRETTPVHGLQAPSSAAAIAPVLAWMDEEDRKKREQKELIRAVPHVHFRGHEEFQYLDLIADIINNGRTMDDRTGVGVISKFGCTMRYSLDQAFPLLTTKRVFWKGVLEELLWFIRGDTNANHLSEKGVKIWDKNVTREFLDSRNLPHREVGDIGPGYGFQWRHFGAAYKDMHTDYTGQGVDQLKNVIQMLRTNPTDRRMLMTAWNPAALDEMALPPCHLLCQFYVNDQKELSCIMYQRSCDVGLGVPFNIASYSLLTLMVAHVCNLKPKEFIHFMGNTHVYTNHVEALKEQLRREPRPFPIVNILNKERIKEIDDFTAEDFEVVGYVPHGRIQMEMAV

[2] = molecular target: Dihydrofolate reductase (Homo sapiens, UniProt P00374)

Row | SMILES | IC50 [1] [nM] | IC50 [2] [nM]
1 | Cc1nc2ccc(CN(C)c3ccc(C(=O)N[C@@H](CCC(=O)O)C(=O)O)s3)cc2c(=O)[nH]1 [RALTITREXED] | 900 | 
2 | Nc1nc2[nH]cc(CCc3ccc(C(=O)N[C@@H](CCC(=O)O)C(=O)O)cc3)c2c(=O)[nH]1 [PEMETREXED] |  | 1500
